Results on 1 substance are retold here after patent US12472248B2, “Antibodies against fentanyl and fentanyl analogs” (dated 2025).

Only a part of the results on these compounds is given; other tests are left out.

The subject of this assay is postimmune sera (week 16). Kind of assay: Serum binding of drugs by ED-LC-MS/MS. To be noted: serum dilutions 1:1600 to 1:6400.

Take Norfentanyl: the “fractions bound compared with fentanyl” value was “less than those of fentanyl”.
